Target: hT2R14 (Homo sapiens (Human), UniProt Q9NYV8)
Test: hT2R14 antagonist high-throughput FLIPR assay, stable cell line with G16g44, agonist aristolochic acid
Assay type: cell-based
Conditions: Table C
Procedure: The inventors also used the automated fluorimetric […] system FLIPR using a slightly different protocol. A HEK293 cell line stably expressing G16gust44 was transfected with a hT2R expression plasmid, 24 hours later, the cells are loaded and analyzed on FLIPR.
After a ligand is identified for a particular hT2R, a HEK293 cell line stably expressing both the hT2R and G16gust44 are generated, facilitating future screening assays to identify other ligands that activate the particular hT2R or which modulate (block or enhance) the activation of this hT2R by another bitter ligand such as a bitter compound contained in coffee. This avoids the need for transient transfection.
To identify antagonists, cell lines stably expressing hT2R8 and hT2R14, respectively, together with the promiscuous chimeric G16g44 protein were generated as described in previous patent applications. A high-throughput assay was established using the stable cell lines and FLIPR (Fluorescent Imaging Plate Reader). An agonist of hT2R8 or hT2R14 was used to activate the receptors up to 70-80% of their respective maximal activity. For hT2R8, the agonist used was andrographolide (200 […]); for hT2R14, it was aristolochic acid (3 μM). To identify antagonists, compounds with diverse chemical structures were added together with the agonist. […]

Sequences of proteins named here, by UniProt entry; tags and fusion partners are left off. A change or cut given only in a name is not applied to a line headed by its entry.
UniProt Q9NYV8: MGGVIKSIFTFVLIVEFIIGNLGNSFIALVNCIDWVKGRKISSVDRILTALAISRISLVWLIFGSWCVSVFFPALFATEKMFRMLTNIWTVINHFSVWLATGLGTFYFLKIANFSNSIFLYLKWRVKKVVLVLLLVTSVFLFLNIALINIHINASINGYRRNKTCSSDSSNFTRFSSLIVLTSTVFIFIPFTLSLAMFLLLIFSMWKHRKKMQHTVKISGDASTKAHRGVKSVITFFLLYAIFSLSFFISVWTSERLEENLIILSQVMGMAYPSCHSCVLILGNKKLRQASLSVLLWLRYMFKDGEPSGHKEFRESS

IC50: 4.09 µM
SMILES: O=C(O)c1ccc(CN(Cc2ccc(F)cc2)S(=O)(=O)c2ccc(O)cc2)cc1 [Example 5-107, 4-((N-(4-fluorobenzyl)-4-hydroxyphenylsulfonamido)methyl)benzoic acid]
